# Yeast mating assay 2: variants of the scFv Ab-95

Data: MIT Lincoln Laboratory AlphaSeq set, Engelhart et al. 2022, doi:10.1038/s41597-022-01779-4, as distributed in FLAb.

All variants were tested on one target, the spike HR2 peptide PDVDLGDISGINAS (SARS-CoV-2).

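Variants in AAYL52 differ from the parent at up to three CDR positions; double and triple changes were sampled at random. In AlphaSeq, yeast of one mating type display the scFv and yeast of the other type display the target. Pairs that bind mate more often; barcode pairs of the diploids are counted by sequencing. A regression on co-assayed BCL2-family reference pairs converts the normalised counts of each replicate to an apparent Kd. The assay was run in three technical replicates.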

Each scFv is VH, the linker GGGGSGGGGSGGGGS, VL, as in the parent Ab-95, and differs from it in the CDRs of the light chain only.
VH: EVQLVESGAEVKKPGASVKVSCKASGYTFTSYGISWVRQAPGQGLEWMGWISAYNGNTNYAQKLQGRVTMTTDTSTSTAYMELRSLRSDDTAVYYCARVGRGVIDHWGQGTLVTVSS
VL: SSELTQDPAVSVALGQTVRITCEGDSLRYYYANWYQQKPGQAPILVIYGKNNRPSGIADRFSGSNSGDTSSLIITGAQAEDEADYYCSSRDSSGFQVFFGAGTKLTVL

The parent's light chain CDRs are EGDSLRYYYAN, GKNNRPS, SSRDSSGFQVF; each variant's own CDRs replace them letter for letter. Values are log10 of the apparent Kd in nM; lower means stronger binding. A mean of the replicates is given; it leaves out those without a signal. Where no diploid with the target was found in that replicate, the entry reads "n.d.": below detection, most likely a poor binder, though not proof of it. Empty control strains, which show no peptide, gave a signal in 28% of pairings with library AAYL52; the median was 3.91 and 95% of these signals were weaker than 2.90. No background was subtracted. For each scFv, signals with the empty controls are counted beside the result, with their mean in brackets.

CDR-L1 | CDR-L2 | CDR-L3 | log10 Kd (nM) by replicate | log10 Kd (nM), mean | control signals
AGDSLRYYYAN | GKNNRPE | SSRDSSGFSVF | 2.01 1.94 1.66 | 1.87 | 7/9 (4.47)
EQDSLRYYYAN | GLNNRPS | SSRDSSGYQVF | 5.45 4.74 n.d. | 5.10 | 1/9 (3.16)
LCDSLRYYYAN | GKNNRPS | SSRDSSSFQVF | 3.50 4.21 4.61 | 4.11 | 1/9 (5.04)
EGDSLRYYYAN | GKNNRPS | SLRDSSGFQVF | 3.34 2.64 3.58 | 3.19 | 1/9 (4.69)
EGDSLRYYYAN | GKNNRPS | YSRWSSGTQVF | 3.14 3.33 3.84 | 3.44 | 3/9 (3.98)
EGDSLRYYYAN | GKNNRPS | SSADSSGIQVF | 2.29 2.74 2.58 | 2.54 | 2/9 (3.22)
EGDSLRYEYAN | GKNNYPH | SSRDSSGFQVF | 2.95 2.86 2.60 | 2.80 | 4/9 (3.58)
EGDSLRYYYKY | GKNNRPS | SFRDSSGFQVF | n.d. 3.40 n.d. | 3.40 | 5/9 (4.16)
EADFLRYYYAN | GKNNRPS | SSRDSSGPQVF | 3.81 3.80 4.22 | 3.94 | 3/9 (3.52)
EGDSQRYYYAN | EKNNRPS | SSRDSSLFQVF | n.d. 4.50 3.57 | 4.03 | 4/9 (3.46)
EGDSLRYTYAN | GKNNCPS | SSRDSSGFQVF | 2.40 2.63 2.34 | 2.46 | 2/9 (3.06)
EGDSDRYYHYN | GKNNRPS | SSRDSSGFQVF | 2.94 3.86 3.07 | 3.29 | 2/9 (4.39)
EGDSLRYYYAN | GGNNRPS | SSRDSPGFQVS | 2.08 1.88 1.39 | 1.78 | 4/9 (3.88)
EGDSLRYMYAN | GKENRPS | SSRDSSTFQVF | 2.79 4.61 n.d. | 3.70 | 1/9 (4.00)
KGDSLRYYYAN | GKNNRPS | SSRWSWGFQVF | 4.17 2.78 n.d. | 3.47 | 2/9 (3.57)
EGDSLRYYYPN | DKNNRPG | SSRDSSGFQVF | 2.18 2.17 1.76 | 2.04 | 6/9 (3.78)
EGCSLRYYYAN | GKNNRPS | SSRDSSGPRVF | n.d. n.d. n.d. | n.d. | 0/9
EGDSLRYYYAN | GKANRPS | SSRDSSGIQVY | 3.02 3.17 2.62 | 2.94 | 4/9 (3.65)
EGDSLRYYIAN | GKNNRPS | SSRDSIGCQVF | 3.38 3.14 2.46 | 2.99 | 1/9 (5.29)
EGDSLRYYYGN | GKNNRPS | SSRDLSGFQFF | 3.67 3.78 3.32 | 3.59 | 2/9 (3.91)
EGKSLRYYYAN | GKNNRPS | SSRDSSGSQVW | 2.20 2.63 n.d. | 2.42 | 2/9 (3.18)
EGDSLRYYYAL | GKLNRSS | SSRDSSGFQVF | 5.07 n.d. 3.23 | 4.15 | 3/9 (3.82)
EGDSLRYYYLN | GKNNRPS | SSRRSSGFQRF | n.d. 4.71 n.d. | 4.71 | 1/9 (3.94)
ENDSLRYYYAN | GKNNRPH | SSRDSSGFQFF | n.d. 4.71 4.22 | 4.46 | 4/9 (3.54)
EGDSLRYKYAM | GKNNRPE | SSRDSSGFQVF | 2.57 2.16 2.06 | 2.26 | 3/9 (3.20)
EGDSLRYMYAN | GNNNRPS | SSLDSSGFQVF | 3.75 4.25 n.d. | 4.00 | 2/9 (3.78)
EGDSLRYYYVN | GKNNRPS | RSRDSSGFQVF | 4.48 n.d. 3.44 | 3.96 | 1/9 (4.24)
EGDSLRYYYAN | GKNNRYS | SSRLSSFFQVF | 4.04 5.35 4.16 | 4.52 | 6/9 (3.82)
EGDSLLYYYAN | GKNNWPS | SSRDSSQFQVF | n.d. 4.93 3.63 | 4.28 | 4/9 (3.98)
EGDSLRYYCAN | GKNNRPS | SSRLSSGFQPF | n.d. 3.69 n.d. | 3.69 | 4/9 (3.37)
EGTSDRYYYSN | GKNNRPS | SSRDSSGFQVF | 1.94 1.89 1.78 | 1.87 | 7/9 (4.17)